Measured values: publication PMC11089506 (Journal of Medicinal Chemistry, 2024)

Protein sequences, listed by entry. Tags and fused reporters are not part of them. Residues count along the entry.
UniProt P28335, 33-458: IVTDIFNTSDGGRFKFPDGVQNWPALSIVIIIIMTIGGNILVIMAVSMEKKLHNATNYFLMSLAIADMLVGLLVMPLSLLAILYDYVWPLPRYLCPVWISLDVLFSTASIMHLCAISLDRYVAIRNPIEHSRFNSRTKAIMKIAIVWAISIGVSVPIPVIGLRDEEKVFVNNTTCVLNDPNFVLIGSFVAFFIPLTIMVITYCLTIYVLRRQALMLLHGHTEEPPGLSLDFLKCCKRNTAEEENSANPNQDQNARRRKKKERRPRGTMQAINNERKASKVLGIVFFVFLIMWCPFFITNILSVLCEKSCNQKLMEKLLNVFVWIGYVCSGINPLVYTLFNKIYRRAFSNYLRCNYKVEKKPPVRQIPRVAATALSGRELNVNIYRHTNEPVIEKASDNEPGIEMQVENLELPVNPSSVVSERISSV
UniProt P28223, whole entry: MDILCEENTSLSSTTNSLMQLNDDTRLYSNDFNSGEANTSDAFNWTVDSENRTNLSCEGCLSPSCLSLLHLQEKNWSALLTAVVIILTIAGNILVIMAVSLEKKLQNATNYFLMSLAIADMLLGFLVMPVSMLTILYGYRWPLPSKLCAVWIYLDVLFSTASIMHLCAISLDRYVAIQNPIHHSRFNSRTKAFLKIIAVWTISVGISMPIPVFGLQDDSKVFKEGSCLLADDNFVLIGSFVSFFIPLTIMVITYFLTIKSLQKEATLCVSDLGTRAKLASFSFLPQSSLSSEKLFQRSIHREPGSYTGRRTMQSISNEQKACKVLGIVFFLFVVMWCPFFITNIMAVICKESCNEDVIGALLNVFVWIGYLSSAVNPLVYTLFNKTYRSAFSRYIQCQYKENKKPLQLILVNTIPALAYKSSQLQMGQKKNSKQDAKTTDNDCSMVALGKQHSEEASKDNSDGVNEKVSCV

What was measured:
[1] = target: human 5-HT2CR (Homo sapiens, UniProt P28335); test: Ca2+/Fluo-4 assay, agonist mode, stable 5-HT2CR-HEK293 cells; details: for 5-HT2CR Rmax (%): % of the 5-HT Rmax; for 5-HT2CR Rmax ± S.E.M.: Table S2, % of the 5-HT Rmax on the same 96-well plate
[2] = target: human 5-HT2AR (Homo sapiens, UniProt P28223); test: Ca2+/Fluo-4 assay, agonist mode, stable 5-HT2AR-HEK293 cells; details: for 5-HT2AR Rmax (%): Table 1, % of the 5-HT Rmax; for 5-HT2AR Rmax ± S.E.M.: Table S2, % of the 5-HT Rmax on the same 96-well plate; for fold drop in agonist potency (fold higher EC50) at 5-HT2AR: relative to (S)-11; for fold higher agonist potency at 5-HT2AR than at 5-HT2CR (selectivity): 5-HT2AR vs 5-HT2CR

| SMILES | 5-HT2CR Rmax ± S.E.M. [1] [%] | 5-HT2CR Rmax (%) ([1]; Table 1) | 5-HT2AR Rmax (%) [2] [%] | 5-HT2AR Rmax ± S.E.M. [2] [%] | also measured |
| --- | --- | --- | --- | --- | --- |
| COc1cc(C(F)(F)F)c(OC)cc1[C@@H]1CCCN(C)C1 [(S)-19, (S)-3-(2,5-Dimethoxy-4-(trifluoromethyl)phenyl)-1-methylpiperidine] | 14 ± 2 | – | – | – | 5-HT2CR Rmax (%) ([1]; Table 2): 14% |
| COc1cc(C2CCCNC2)c(OC)cc1Br (stereo not shown) [Compound 6dis, 3-(4-Bromo-2,5-dimethoxyphenyl)piperidine] | 34 ± 4 | 34 | 67 | 67 ± 6 | – |
| COc1cc(C2CCCNC2)c(OC)cc1Br (stereo not shown) [Compound 6eu, 3-(4-Bromo-2,5-dimethoxyphenyl)piperidine] | – | – | 37 | 37 ± 4 | Rmax at 5-HT2AR [2]: 37% |
| COc1cc(C2CCCNC2)c(OC)cc1Cl (stereo not shown) [Compound 8dis, 3-(4-Chloro-2,5-dimethoxyphenyl)piperidine] | 26 ± 2 | 26 | 61 | 61 ± 2 | – |
| COc1cc(C2CCCNC2)c(OC)cc1Cl (stereo not shown) [Compound 8eu, 3-(4-Chloro-2,5-dimethoxyphenyl)piperidine] | – | – | 32 | 32 ± 6 | – |
| COc1cc(C2CCCNC2)c(OC)cc1I (stereo not shown) [Compound 9dis, 3-(4-Iodo-2,5-dimethoxyphenyl)piperidine] | – | – | 58 | 58 ± 4 | – |
| COc1cc(C2CCCNC2)c(OC)cc1I (stereo not shown) [Compound 9eu, 3-(4-Iodo-2,5-dimethoxyphenyl)piperidine] | – | – | 53 | 53 ± 3 | – |
| COc1cc(C2CCCNC2)c(OC)cc1C#N (stereo not shown) [Compound 10dis, 2,5-Dimethoxy-4-(piperidin-3-yl)benzonitrile] | 14 ± 1 | 14 | 41 | 41 ± 6 | – |
| COc1cc(C2CCCNC2)c(OC)cc1C#N (stereo not shown) [Compound 10eu, 2,5-Dimethoxy-4-(piperidin-3-yl)benzonitrile] | – | – | 25 | 25 ± 4 | – |
| COc1cc(C2CCCNC2)c(OC)cc1C.Cl (stereo not shown) [Compound 12dis, 3-(2,5-Dimethoxy-4-methylphenyl)piperidine Hydrochloride] | 53 ± 6 | 53 | 89 | 89 ± 4 | – |
| COc1cc(C2CCCNC2)c(OC)cc1C.Cl (stereo not shown) [Compound 12eu, 3-(2,5-Dimethoxy-4-methylphenyl)piperidine Hydrochloride] | – | – | 75 | 75 ± 3 | – |
| CCc1cc(OC)c(C2CCCNC2)cc1OC.Cl (stereo not shown) [Compound 13dis, 3-(4-Ethyl-2,5-dimethoxyphenyl)piperidine Hydrochloride] | 44 ± 5 | 44 | 93 | 93 ± 5 | – |
| CCc1cc(OC)c(C2CCCNC2)cc1OC.Cl (stereo not shown) [Compound 13eu, 3-(4-Ethyl-2,5-dimethoxyphenyl)piperidine Hydrochloride] | – | – | 75 | 75 ± 4 | – |
| CCCCc1cc(OC)c(C2CCCNC2)cc1OC.Cl (stereo not shown) [Compound 14dis, 3-(4-Butyl-2,5-dimethoxyphenyl)piperidine Hydrochloride] | 68 ± 6 | 68 | 93 | 93 ± 5 | – |
| CCCCc1cc(OC)c(C2CCCNC2)cc1OC.Cl (stereo not shown) [Compound 14eu, 3-(4-Butyl-2,5-dimethoxyphenyl)piperidine Hydrochloride] | – | – | 82 | 82 ± 2 | – |
| COc1cc(C2CCCNC2)c(OC)cc1SC.Cl (stereo not shown) [Compound 15dis, 3-(2,5-Dimethoxy-4-(methylthio)phenyl)piperidine Hydrochloride] | 38 ± 5 | 38 | 85 | 85 ± 7 | – |
| COc1cc(C2CCCNC2)c(OC)cc1SC.Cl (stereo not shown) [Compound 15eu, 3-(2,5-Dimethoxy-4-(methylthio)phenyl)piperidine Hydrochloride] | 16 ± 2 | 16 | 84 | 84 ± 6 | – |
| CCSc1cc(OC)c(C2CCCNC2)cc1OC.Cl (stereo not shown) [Compound 16dis, 3-(2,5-Dimethoxy-4-(ethylthio)phenyl)piperidine Hydrochloride] | 52 ± 5 | 52 | – | – | – |
| COc1cc(C2CCCNC2)c(OC)cc1SC(C)C (stereo not shown) [Compound 17dis, 3-(4-(Isopropylthio)-2,5-dimethoxyphenyl)piperidine] | – | – | 91 | 91 ± 4 | – |
| COc1cc(C2CCCNC2)c(OC)cc1SC(C)C (stereo not shown) [Compound 17eu, 3-(4-(Isopropylthio)-2,5-dimethoxyphenyl)piperidine] | – | – | 92 | 92 ± 4 | – |
| COc1cc(C(F)(F)F)ccc1C1CCCNC1.Cl (stereo not shown) [Compound 22, 3-(2-Methoxy-4-(trifluoromethyl)phenyl)piperidine Hydrochloride] | – | – | – | – | fold drop in agonist potency (fold higher EC50) at 5-HT2AR [2]: 20 fold |
| COc1cc(C(F)(F)F)ccc1C1CCCNC1.Cl (stereo not shown) [Compound 22dis, 3-(2-Methoxy-4-(trifluoromethyl)phenyl)piperidine Hydrochloride] | 38 ± 6 | – | – | – | 5-HT2CR Rmax (%) ([1]; Table 2): 38% |
| CCOc1cc(C(F)(F)F)c(OC)cc1C1CCCNC1.Cl (stereo not shown) [Compound 24dis, 3-(2-Ethoxy-5-methoxy-4-(trifluoromethyl)phenyl)piperidine Hydrochloride] | 34 ± 1 | – | – | – | – |
| CCOc1cc(C(F)(F)F)c(OC)cc1C1CCCNC1.Cl (stereo not shown) [Compound 24eu, 3-(2-Ethoxy-5-methoxy-4-(trifluoromethyl)phenyl)piperidine Hydrochloride] | – | – | – | – | fold higher agonist potency at 5-HT2AR than at 5-HT2CR (selectivity) [2]: 70 fold; fold drop in agonist potency (fold higher EC50) at 5-HT2AR [2]: 10 fold |
| CCOc1cc(C2CCCNC2)c(OC)cc1C(F)(F)F.Cl (stereo not shown) [Compound 25eu, 3-(5-Ethoxy-2-methoxy-4-(trifluoromethyl)phenyl)piperidine Hydrochloride] | 44 ± 5 | – | – | – | 5-HT2CR Rmax (%) ([1]; Table 2): 44%; fold higher agonist potency at 5-HT2AR than at 5-HT2CR (selectivity) [2]: 30 fold; fold drop in agonist potency (fold higher EC50) at 5-HT2AR [2]: 3 fold |
